From patent US12331093B2, “Fusion polypeptides for metabolic disorders” (BEIJING QL BIOPHARMACEUTICAL CO., LTD., priority 2021, dated 2025)

Chains of the proteins cited; added tags and fusions are not shown. Residues count along the entry.
UniProt P43220, 24-463: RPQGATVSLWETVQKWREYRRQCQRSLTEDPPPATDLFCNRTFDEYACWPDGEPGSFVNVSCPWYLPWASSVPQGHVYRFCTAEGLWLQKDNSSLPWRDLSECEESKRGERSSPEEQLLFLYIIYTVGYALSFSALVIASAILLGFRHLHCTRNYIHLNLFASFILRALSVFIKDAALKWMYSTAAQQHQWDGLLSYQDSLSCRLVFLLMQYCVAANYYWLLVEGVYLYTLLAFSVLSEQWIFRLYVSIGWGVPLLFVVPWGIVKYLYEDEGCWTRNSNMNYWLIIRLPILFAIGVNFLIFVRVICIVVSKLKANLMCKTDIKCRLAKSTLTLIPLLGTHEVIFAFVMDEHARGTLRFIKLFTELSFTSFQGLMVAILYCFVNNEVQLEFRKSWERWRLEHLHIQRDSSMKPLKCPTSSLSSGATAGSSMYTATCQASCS

How the values were obtained:
human GLP-1 receptor = biological target: T1, human GLP-1 receptor (Homo sapiens, UniProt P43220); experiment: In vitro GLP-1 activity, BHK cell line overexpressing human GLP-1 receptor and CRE luciferase reporter; type: cell-based; details: in the presence of 1% HSA, 4 hours
T1 construct: expressed in transfected cells; host or cells: BHK cell line
Method: Tested fusion proteins were measured at 100 nM as top concentration in the presence of 1% HSA with 3-fold serial dilutions. After cells were treated with molecules for 4 hours, luciferase activities were measured by Steadylite plus kit (Perkin Elmer, 6066751).
(§1) The activity of each fusion protein was represented by EC50, derived from non-linear regression analysis.

human beta-Klotho = biological target: T2, human beta-Klotho (Homo sapiens, UniProt Q86Z14); experiment: In vitro FGF21 activity, p-ERK levels in HEK293 cell line overexpressing human beta-Klotho; type: cell-based; details: Table 2, 1% HSA, 12 mins
T2 construct: expressed in transfected cells; host or cells: HEK293 cell line
Method: The in vitro FGF21 activities of the fusion protein were assessed using a HEK293 cell line overexpressing human beta-Klotho. Tested fusion protein conjugates were measured at 400 nM top concentration with 4-fold serial dilutions in the presence of 1% HSA. After cells were treated with fusion protein conjugates for 12 mins, p-ERK levels were measured by p-ERK kit (Cisbio, 64ERKPEH).
as §1

Human serum albumin = Human serum albumin (Homo sapiens, UniProt P02768); experiment: Human serum albumin binding by surface plasmon resonance (Biacore 8K); details: SPR, human serum albumin bound to CM5 chip

Substance | EC50 (human GLP-1 receptor) [nM] | EC50 (human beta-Klotho) [nM] | Rmax (RU) (Human serum albumin) | Kd (Human serum albumin) [nM]
Control#2: GLP1(del7-8, 22E, 36G)-(GAQP)5-ALB8-(GAQP)10-FGF21 (121Q, 168L, 171G, 180E), SEQ ID NO: 72, GLP1 dead [reference compound] | > 50 | 2.1 | – | –
Control#5: GLP1(del7-8, 22E, 36G)-(GAQP)5-ALB8-(GAQP)2-FGF21 (121Q, 168L, 171G, 180E), SEQ ID NO: 77, GLP1 dead [reference compound] | > 50 | 1.35 | 1604.0 | 220
Control#4: GLP1(del7-8, 22E, 36G)-(GAQP)5-ALB8-(GAQP)5-FGF21 (121Q, 168L, 171G, 180E), SEQ ID NO: 76, GLP1 dead [reference compound] | > 50 | 1.47 | 1252.0 | 270

The next lines start with results.

EC50 (human GLP-1 receptor) [nM] | EC50 (human beta-Klotho) [nM] | Rmax (RU) (Human serum albumin) | Substance | Kd (Human serum albumin) [nM]
> 50 | 2.26 | 1289.8 | Control#6: GLP1(del7-8, 22E, 36G)-(GAQP)5-ALB8-(GAQP)-FGF21 (121Q, 168L, 171G, 180E), SEQ ID NO: 78, GLP1 dead [reference compound] | 220
> 50 | 1.04 | – | Control#1: GLP1(del7-8, 22E, 36G)-(G4S)4-ALB8-G4SG3S-FGF21 (121Q, 168L, 171G, 180E), SEQ ID NO: 71, control to MLC#8, GLP1 dead [reference compound] | –
